Experimental data reported in the CATMoS acute toxicity set (Mansouri et al. 2021).

experiment: rat acute oral toxicity; details: in vivo

SMILES | LD50 [mg/kg]
O=c1ccc2ccccc2o1 | 290
O=C(OCc1ccccc1)c1ccccc1 | 1700
CC(=O)Nc1ccc(O)cc1 | 1940
COc1cc(C=O)ccc1O | 1790
CC1CCC(C(C)C)C(O)C1 (stereo not drawn) | 2050

experiment: GHS categories as the set defines them, by LD50: 1 up to 5, 2 up to 50, 3 up to 300, 4 up to 2000, 5 above 2000 mg/kg; details: rat; in vivo; po

SMILES | GHS category
CO/N=C(\C(=O)N[C@@H]1C(=O)N2C(C(=O)[O-])=C(C[n+]3cccc4c3CCC4)CS[C@H]12)c1csc(N)n1 | 5
N[C@H](C(=O)O)[C@@H](O)c1ccc(O)c(O)c1 | 5
CC(=O)OCC=C(C)CCC=C(C)C | 5
